According to publication PMC11571109, “Covalent Inhibitors of S100A4 Block the Formation of a Pro-Metastasis Non-Muscle Myosin 2A Complex” (Journal of Medicinal Chemistry, 2024):
Values joined by “and” are separate entries in the source; they are usually repeats but may differ in a detail not shown here. Equal entries are not always repeated.

The chains behind the UniProt entries cited, without tags or fusion partners. Where a name states a change or a piece, a line headed by the entry shows the natural chain unless it says otherwise.
UniProt P26447: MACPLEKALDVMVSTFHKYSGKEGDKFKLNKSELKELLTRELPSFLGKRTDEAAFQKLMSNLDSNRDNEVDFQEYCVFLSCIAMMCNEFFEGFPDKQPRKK

How the values were obtained:
S100A4 [1] = target: T1, S100A4 (Homo sapiens, UniProt P26447); assay: Kinetics of S100A4 labeling, RapidFire MS time course; format: binding; set-up: His6 (TEV-cleavable, pNIC28-Bsa4) (N); made in house; host or cells: E. coli Rosetta (DE3); conditions: 100 μM inhibitor, S100A4 1 μM / 20 μM, calcium, triplicate
Procedure: In order to determine the kinetics of S100A4 inhibition by phenylproline derivatives, we performed a time course of the detection of unmodified S100A4 (1 μM) against each covalent inhibitor (100 μM) in the presence of calcium. Each experiment was done in triplicate using a RapidFire MS system. The rate of the reaction was determined as −kobs = ln([A]/[A0]).
For kinetic determination of S100A4 inhibition, 1 μM S100A4 was mixed with a 100 μM covalent inhibitor in 50 mM MES, pH 7.0, and 1 mM CaCl2 buffer. The mixture was analyzed over time using the RapidFire MS system (Agilent Technologies).

[2] = system: P-glycoprotein (P-gp, MDR1); assay: Cell permeability MDR1-MDCK II; format: in vitro ADME; conditions: dog, insufficient recovery (<50.0), read-out: MDR1-MDCK II, efflux ratio (ER)
Description: Selected compounds were screened for aqueous solubility in PBS (pH 7.4), metabolic stability in mouse liver microsomes (MLM) as a measure of clearance, Log D, and permeability. ADME studies reported in this work were independently performed by WuXi AppTec (Shanghai, China). Raw data are provided upon request.

S100A4 [3] = target: T1, S100A4; assay: Protein labeling detection by mass spectrometry, S100A4; conditions: 10 μM S100A4, 100 μM inhibitor, 1 h

O=C(Nc1cccc(Cl)c1)[C@H]1C[C@H](c2ccccc2)CN1C(=O)CCl [5a]
kobs of S100A4 labeling (S100A4 [1]): 22 × 10^–4 s^–1 and 22. 10^-4 s^–1 | efflux ratio [2]: < 3.62

O=C(Nc1cccc(Cl)c1)[C@H]1C[C@H](c2ccccc2)CN1C(=O)CCl [compound 5]
shift of the S100A4 protein mass (covalent adduct) (S100A4 [3]): 340 Da
